Experimental data: patent US7276339B2 (H. Lundbeck A/S, priority 1998, dated 2007)

Amino acid sequences for entries named in this document (tags omitted). A change or cut given only in a name is not applied to a line headed by its entry.
UniProt Q9EP86: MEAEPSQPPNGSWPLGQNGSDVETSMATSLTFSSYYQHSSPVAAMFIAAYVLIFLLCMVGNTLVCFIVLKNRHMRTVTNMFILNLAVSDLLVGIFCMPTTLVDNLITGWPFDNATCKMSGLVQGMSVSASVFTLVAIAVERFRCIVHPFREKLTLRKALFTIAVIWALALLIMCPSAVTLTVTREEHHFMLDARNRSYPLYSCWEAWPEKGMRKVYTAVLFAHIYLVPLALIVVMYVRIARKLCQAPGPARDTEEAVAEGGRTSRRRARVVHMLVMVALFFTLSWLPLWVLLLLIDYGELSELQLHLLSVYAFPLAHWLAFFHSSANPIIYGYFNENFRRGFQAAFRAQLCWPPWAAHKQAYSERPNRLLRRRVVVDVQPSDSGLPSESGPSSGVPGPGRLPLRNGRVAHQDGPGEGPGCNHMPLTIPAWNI

Target: rat NPFF1 receptor (Rattus norvegicus, UniProt Q9EP86)
Test: [125I]D-Tyr-NPFF radioligand binding, membranes of COS-7 cells transiently expressing cloned rat NPFF1
Design: expressed in transfected cells; host or cells: COS-7 (transient)
Settings: competition of [125I]D-Tyr-NPFF binding; COS-7 membranes
Protocol: Transfected cells from culture flasks are scraped into 5 ml of 20 mM Tris-HCl, 5 mM EDTA, pH 7.5, and lysed by sonication. The cell lysates are centrifuged at 1000 rpm for 5 min. at 4° C., and the supernatant is centrifuged at 30,000×g for 20 min. at 4° C. […] Optimal membrane suspension dilutions, defined as the protein concentration required to bind less than 10% of the added radioligand, […], unlabeled compounds, and binding buffer to a final volume of 250 μl. In equilibrium saturation binding assays membrane preparations are incubated in the presence of increasing concentrations of [^3H]-labeled compound. […] Competition assay: 50 pM radioligand, 10-12 points. Binding reaction mixtures are incubated for 2 hr at 25° C., and the reaction stopped by filtration through a double layer of GF filters treated with 0.1% polyethyleneimine, using a cell harvester. Wash buffer: 50 mM Tris-HCl, 0.1% BSA. Radioactivity may be measured by scintillation counting and data are analyzed by a computerized non-linear regression program. Non-specific binding is defined as the amount of radioactivity remaining after incubation of membrane protein in the presence of 1 μM final concentration […]. Protein concentration may be measured by the Bradford method using Bio-Rad Reagent, with bovine serum albumin as a standard. […]

Substance | pKi for cloned rat NPFF1 receptor binding in COS-7 cells, MEAN
Dynorphin A1-13 | 6.838
ibogaine | ≤ 5
